Laboratory results taken from ChEMBL document CHEMBL3886638, “Heteroaryl linked quinolinyl modulators of RORγt” (2016).

Chains of the proteins cited; added tags and fusions are not shown. Lines headed by an entry give the natural chain unless they say otherwise; changes in a name come on top.
UniProt P51449: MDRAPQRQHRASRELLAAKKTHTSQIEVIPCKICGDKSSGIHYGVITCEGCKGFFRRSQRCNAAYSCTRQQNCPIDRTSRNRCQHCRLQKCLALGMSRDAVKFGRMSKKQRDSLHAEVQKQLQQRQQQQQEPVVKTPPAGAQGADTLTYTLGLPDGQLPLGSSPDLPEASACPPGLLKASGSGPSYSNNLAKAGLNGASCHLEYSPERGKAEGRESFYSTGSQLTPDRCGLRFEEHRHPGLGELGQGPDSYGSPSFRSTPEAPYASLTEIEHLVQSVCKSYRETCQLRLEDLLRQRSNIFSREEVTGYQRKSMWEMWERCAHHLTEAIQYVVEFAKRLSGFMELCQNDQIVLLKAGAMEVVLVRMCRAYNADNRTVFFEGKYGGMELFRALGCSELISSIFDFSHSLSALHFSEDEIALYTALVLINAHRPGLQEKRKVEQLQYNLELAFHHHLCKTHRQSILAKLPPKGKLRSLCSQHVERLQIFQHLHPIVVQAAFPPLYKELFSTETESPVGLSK

Biological target: Nuclear receptor ROR-gamma (Homo sapiens, UniProt P51449)
Experiment: ThermoFluor® Assay: ThermoFluor® experiments were carried out using instruments owned by Janssen Research and Discovery, L.L.C. through its acquisition of 3-Dimensional Pharmaceuticals, Inc. 1,8-ANS (Invitrogen) was used as a fluorescent dye. Protein and compound solutions are dispensed into black 384-well polypropylene PCR microplates (Abgene) and overlayed with silicone oil (1 μL, Fluka, type DC 200) to prevent evaporation. Bar-coded assay plates are robotically loaded onto a thermostatically controlled PCR-type thermal block and then heated at a typical ramp-rate of 1 °C./min for all experiments. Fluorescence was measured by continuous illumination with UV light (Hamamatsu LC6) supplied via fiber optic and filtered through a band-pass filter (380-400 nm; >60D cutoff). Fluorescence emission of the entire 384-well plate was detected by measuring light intensity using a CCD camera (Sensys, Roper Scientific) filtered to detect 500±25 nm, resulting in simultaneous and independent readings of all 384 wells. Images were collected at each temperature, and the sum of the pixel intensity in a given area of the assay plate was recorded versus temperature. Reference wells contained RORγt without compounds, and the assay conditions were as follows: 0.065 mg/mL RORγt, 60 μM 1,8-ANS, 100 mM Hepes, pH 7.0, 10 mM NaCl, 2.5 mM GSH, 0.002% Tween-20. […]

Kd: 4.1 nM
SMILES: COc1ccc(C(O)(c2ccc3nc(N(C)C)c(Oc4ccccc4)c(Cl)c3c2)c2cncn2C)cn1 (stereo unspecified)
